# Binding of CDR-mutated scFvs to a peptide of the spike HR2 region

From the AlphaSeq antibody data of Li et al. 2023 (doi:10.1038/s41467-023-39022-2), copy in the FLAb collection.

Binding partner: SARS-CoV-2 spike HR2 peptide, sequence PDVDLGDISGINAS.

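The starting antibody came from a phage panning campaign against this peptide. The variants were designed computationally from a first round of random CDR variants and then made and measured. Their group label is 14L_Ctrl (Ctrl: baseline library sampled from a position-specific scoring matrix, with some repeated check sequences). Affinity was read by AlphaSeq, a pooled yeast mating assay with surface-displayed partners. Binding brings cells together so that they mate, and sequencing counts the barcode pairs among the diploids. Scores were corrected for input abundance and mapped to Kd with protein pairs of known affinity run in the same pool. The assay was run in six technical replicates.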

The variants keep the heavy chain, the linker and the frameworks of Ab-14 (scFv order VH, the linker GGGGSGGGGSGGGGS, VL).
VH: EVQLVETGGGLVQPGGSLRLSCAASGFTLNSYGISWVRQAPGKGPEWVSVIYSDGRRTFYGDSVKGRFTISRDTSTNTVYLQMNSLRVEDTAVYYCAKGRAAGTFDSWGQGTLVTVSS
VL: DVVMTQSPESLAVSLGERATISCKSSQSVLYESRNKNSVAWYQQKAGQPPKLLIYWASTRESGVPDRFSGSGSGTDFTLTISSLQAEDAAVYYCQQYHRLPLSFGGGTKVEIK

Positions count from residue 1 of the parent VL; V29Y puts Y in place of V. Numbers give log10(Kd / nM), so 0 is 1 nM and 3 is 1 µM. Smaller is tighter. Replicates are averaged; those with no signal do not enter the mean. A pair that was not seen in that replicate is written "n.d."; this usually means weak binding, but a binder can also be missed. A sequence measured in both rounds can read differently, since the two assays cover different ranges. As a blank, each scFv also met three strains without target: over all light chain designs, 4% of these pairings were detected, typically at 2.64 and seldom below 1.59. The control count says in how many pairings with the empty strains this scFv gave a signal, with their mean in brackets. Of ten entries with the parent sequence, four were seen in most replicates (averages 0.34 to 2.37), three in one and three in none, so single entries are noisy. In the paper, a design with two or fewer of six values counts as a poor binder.

| changes | replicates, log10 nM | mean, log10 nM | signal with controls |
|---|---|---|---|
| V29Y Y31D R34F S103G | n.d. / n.d. / n.d. / n.d. / n.d. / n.d. | n.d. | 1 of 18 (2.39) |
| L30V R34D N35E S58Y P101M | n.d. / n.d. / n.d. / n.d. / n.d. / n.d. | n.d. | 0 of 18 |
| W56G E61V Q96G H98V | 1.06 / 0.71 / 0.75 / 0.59 / 0.69 / 0.80 | 0.77 | 2 of 18 (4.82) |
| S26I S33D W56G S62V Q95S | 1.04 / 2.28 / 1.49 / n.d. / 2.08 / 0.86 | 1.55 | 0 of 18 |
| S28G V29L Q96T | 2.26 / n.d. / n.d. / 3.34 / 3.15 / 2.26 | 2.75 | 1 of 18 (3.44) |
| N35V W56S | 0.95 / 0.88 / 0.44 / 0.54 / 0.62 / 0.71 | 0.69 | 3 of 18 (3.53) |
| S26M V39L | n.d. / n.d. / n.d. / n.d. / n.d. / n.d. | n.d. | 0 of 18 |
| S26D R34G S58T | 1.05 / 0.38 / 0.27 / 1.10 / 0.87 / 1.04 | 0.79 | 1 of 18 (1.69) |
| S25L E32P S62D | 0.93 / 1.02 / 0.61 / 0.28 / 0.61 / 0.51 | 0.66 | 1 of 18 (3.19) |
| K36C W56E | 1.09 / 0.48 / 0.45 / 0.53 / 0.59 / 0.69 | 0.64 | 0 of 18 |
| S25M L30G Y31M N35L N37Q R99M | n.d. / 1.17 / 1.27 / 1.50 / 0.84 / 0.94 | 1.15 | 0 of 18 |
| L30Q W56H H98Q S103P | n.d. / n.d. / n.d. / n.d. / n.d. / n.d. | n.d. | 0 of 18 |
| Q27R S33T W56A S58T S62Y | 0.70 / 0.81 / 0.86 / 0.38 / 0.84 / 1.02 | 0.77 | 0 of 18 |
| R34D Y97P H98A | n.d. / n.d. / n.d. / n.d. / n.d. / n.d. | n.d. | 0 of 18 |
| R34S K36S R60Q | n.d. / n.d. / n.d. / n.d. / -1.04 / n.d. | -1.04 | 0 of 18 |
| R34N S38N Q96W | n.d. / n.d. / n.d. / n.d. / n.d. / n.d. | n.d. | 0 of 18 |
| S25I S38G Y97I L100M S103C | n.d. / n.d. / n.d. / n.d. / n.d. / n.d. | n.d. | 0 of 18 |
| S25Y V29W Y97K R99V | 0.25 / -0.02 / 0.85 / 0.34 / 0.00 / 0.73 | 0.36 | 0 of 18 |
| S25M Q27N W56Q L102F | 0.41 / -0.08 / -0.11 / -0.17 / -0.22 / 0.07 | -0.02 | 2 of 18 (3.08) |
| S25T Q27G H98Q | n.d. / 1.89 / n.d. / 1.94 / 1.78 / 2.68 | 2.08 | 0 of 18 |
| K24Q Y31R Y97V | n.d. / n.d. / n.d. / n.d. / n.d. / n.d. | n.d. | 0 of 18 |
| V29M L30P W56E | -0.18 / -0.56 / -0.52 / -0.83 / -0.49 / -0.35 | -0.49 | 0 of 18 |
| L30D S62N Y97P R99T | n.d. / n.d. / n.d. / n.d. / n.d. / 2.43 | 2.43 | 2 of 18 (0.71) |
| R34N W56H E61N | 0.86 / 0.53 / 1.26 / 1.33 / 1.11 / 0.84 | 0.99 | 2 of 18 (2.14) |
| V29D Y31M Q95Y | n.d. / n.d. / n.d. / n.d. / n.d. / n.d. | n.d. | 0 of 18 |
| S25N V29L S62F | n.d. / n.d. / n.d. / 1.20 / n.d. / n.d. | 1.20 | 0 of 18 |
| W56D L100W | 2.27 / 1.05 / 0.94 / 1.70 / 2.55 / 1.28 | 1.63 | 0 of 18 |
| Q27E V29W E32D K36A W56Q R99Y P101F L102I | 0.27 / 0.46 / 0.11 / 0.51 / 0.61 / 0.67 | 0.44 | 0 of 18 |
| S26C E61A S62D | 0.54 / 0.82 / 1.36 / 0.89 / 0.21 / 0.85 | 0.78 | 1 of 18 (2.68) |
| S25I Q27W W56H Y97C | n.d. / n.d. / n.d. / n.d. / n.d. / n.d. | n.d. | 0 of 18 |
| S33E R99S | n.d. / 3.05 / n.d. / n.d. / 3.20 / n.d. | 3.12 | 1 of 18 (3.15) |
| V29M R34D S58G S62A H98M | 1.34 / 2.98 / n.d. / 2.01 / 2.26 / 1.66 | 2.05 | 0 of 18 |
| S25H | n.d. / n.d. / n.d. / 2.06 / 2.62 / n.d. | 2.34 | 0 of 18 |
| S26A R34Q S38N L102C | n.d. / n.d. / n.d. / n.d. / n.d. / n.d. | n.d. | 0 of 18 |
| Y31L S33T | n.d. / 2.18 / 3.29 / 2.72 / 2.34 / n.d. | 2.63 | 2 of 18 (2.44) |
| H98V S103A | 0.96 / n.d. / n.d. / n.d. / n.d. / n.d. | 0.96 | 0 of 18 |
| K36D Y97S | n.d. / n.d. / n.d. / n.d. / n.d. / n.d. | n.d. | 0 of 18 |

Top 6 of the variants detected in all replicates, tightest first:

{"changes": "V29M L30P W56E", "replicates, log10 nM": "-0.18 / -0.56 / -0.52 / -0.83 / -0.49 / -0.35", "mean, log10 nM": "-0.49", "signal with controls": "0 of 18"}
{"changes": "S25M Q27N W56Q L102F", "replicates, log10 nM": "0.41 / -0.08 / -0.11 / -0.17 / -0.22 / 0.07", "mean, log10 nM": "-0.02", "signal with controls": "2 of 18 (3.08)"}
{"changes": "S25Y V29W Y97K R99V", "replicates, log10 nM": "0.25 / -0.02 / 0.85 / 0.34 / 0.00 / 0.73", "mean, log10 nM": "0.36", "signal with controls": "0 of 18"}
{"changes": "Q27E V29W E32D K36A W56Q R99Y P101F L102I", "replicates, log10 nM": "0.27 / 0.46 / 0.11 / 0.51 / 0.61 / 0.67", "mean, log10 nM": "0.44", "signal with controls": "0 of 18"}
{"changes": "K36C W56E", "replicates, log10 nM": "1.09 / 0.48 / 0.45 / 0.53 / 0.59 / 0.69", "mean, log10 nM": "0.64", "signal with controls": "0 of 18"}
{"changes": "S25L E32P S62D", "replicates, log10 nM": "0.93 / 1.02 / 0.61 / 0.28 / 0.61 / 0.51", "mean, log10 nM": "0.66", "signal with controls": "1 of 18 (3.19)"}